These results are taken from US11203574B2 (BioCryst Pharmaceuticals, Inc., priority 2014, dated 2021).

Chains of the proteins cited; added tags and fusions are not shown.
UniProt P03952, whole entry, looked up: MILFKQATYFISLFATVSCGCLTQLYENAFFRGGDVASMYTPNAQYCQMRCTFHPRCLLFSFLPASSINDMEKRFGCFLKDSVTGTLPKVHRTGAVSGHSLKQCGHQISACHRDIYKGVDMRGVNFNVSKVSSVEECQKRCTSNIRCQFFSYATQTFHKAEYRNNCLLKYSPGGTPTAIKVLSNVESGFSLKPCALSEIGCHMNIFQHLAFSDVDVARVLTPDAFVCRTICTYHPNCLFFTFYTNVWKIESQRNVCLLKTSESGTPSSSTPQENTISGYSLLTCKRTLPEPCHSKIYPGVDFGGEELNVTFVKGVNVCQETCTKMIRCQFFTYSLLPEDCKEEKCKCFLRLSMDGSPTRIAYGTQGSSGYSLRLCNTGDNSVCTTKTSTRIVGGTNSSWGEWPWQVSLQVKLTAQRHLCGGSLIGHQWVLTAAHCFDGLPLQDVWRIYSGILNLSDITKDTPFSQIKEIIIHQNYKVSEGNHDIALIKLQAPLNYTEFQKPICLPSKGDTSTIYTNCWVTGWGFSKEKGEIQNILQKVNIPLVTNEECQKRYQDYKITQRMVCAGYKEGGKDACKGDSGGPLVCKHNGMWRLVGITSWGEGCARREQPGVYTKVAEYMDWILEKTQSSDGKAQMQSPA

Structures are written as SMILES.

In general, Ki refers to a dissociation constant, usually derived from enzyme kinetics or from competition with a known ligand.

The assay has as its target human plasma kallikrein (Homo sapiens (Human), UniProt P03952). The assay can be described thus: Plasma kallikrein activity assay (chromogenic substrate S2302). The class given is biochemical. Particulars: 2 nM kallikrein, 80 μM S2302, 30° C., pH 7.8; Ki by Cheng-Prusoff equation; values given as ranges.
As for `NCc1cccc(-n2nc(C(=O)O)cc2C(=O)Nc2cc(C(NCC3CC3)c3ccccc3)ccc2F)c1` (single isomer, unassigned; (+)) [246f, (+)-1-(3-(aminomethyl)phenyl)-5-(5-((cyclopropylmethylamino)(phenyl)methyl)-2-fluorophenylcarbamoyl)-1H-pyrazole-3-carboxylic acid], the Ki was 0.1 to 50 nM.
The same measure for `NCc1cccc(C(NCC2CC2)c2cccc(NC(=O)c3cc(C(F)(F)F)nn3-c3cccc(CN)c3)c2)c1` (stereo not shown) [108e, 1-(3-(Aminomethyl)phenyl)-N-(3-((3-(aminomethyl)phenyl)(cyclopropylmethylamino)methyl)phenyl)-3-(trifluoromethyl)-1H-pyrazole-5-carboxamide]: 0.1 to 50 nM; for `CN(C1CC1)C(c1ccc(CN)cc1)c1ccc(F)c(NC(=O)c2cc(C(F)(F)F)nn2-c2cccc(CN)c2)c1` (stereo not shown) [139b, 1-(3-(aminomethyl)phenyl)-N-(5-((4-(aminomethyl)phenyl)(cyclopropyl-methylamino)methyl)-2-fluorophenyl)-3-(trifluoromethyl)-1H-pyrazole-5-carboxamide]: 0.1 to 50 nM.
The value for `COc1ccc(C(NCC2CC2)c2ccc(F)c(NC(=O)c3cc(C(F)(F)F)nn3-c3cccc(CN)c3)c2)cc1` (stereo not shown) [142f, 1-(3-(aminomethyl)phenyl)-N-(5-(((cyclopropylmethyl)amino)(4-methoxyphenyl)methyl)-2-fluorophenyl)-3-(trifluoromethyl)-1H-pyrazole-5-carboxamide] was 0.1 to 50 nM; that for `NCc1cccc(-n2nc(C(F)(F)F)cc2C(=O)Nc2cc(C3CC3)cc(C(NCC3CC3)c3ccccc3)c2)c1` (stereo not shown) [95i, 1-(3-(aminomethyl)phenyl)-N-(3-cyclopropyl-5-((cyclopropylmethylamino)(phenyl)methyl)phenyl)-3-(trifluoromethyl)-1H-pyrazole-5-carboxamide] was 0.1 to 50 nM.
The same measure for `NCc1cccc(-n2nc(C(F)(F)F)cc2C(=O)Nc2cccc(C(NCC3CC3)c3ccc(OCc4ccccc4)cc3)c2)c1` (stereo not shown) [123g, 1-(3-(aminomethyl)phenyl)-N-(3-((4-(benzyloxy)phenyl)(cyclopropylmethylamino)methyl)phenyl)-3-(trifluoromethyl)-1H-pyrazole-5-carboxamide]: 0.1 to 50 nM.
`NCc1cccc(-n2nc(C(N)=O)cc2C(=O)Nc2cc(C(NCC3CC3)c3ccccc3)ccc2F)c1` (single isomer, unassigned; (-)) [229i, (−)-1-(3-(aminomethyl)phenyl)-N5-(5-((cyclopropylmethylamino)(phenyl)-methyl)-2-fluorophenyl)-1H-pyrazole-3,5-dicarboxamide] gave a Ki of 0.1 to 50 nM.
`COc1ccccc1C(NCC1CC1)c1cccc(NC(=O)c2cc(C(F)(F)F)nn2-c2cccc(CN)c2)c1` (stereo not shown) [119e, 1-(3-(aminomethyl)phenyl)-N-(3-(((cyclopropylmethyl)amino)(2-methoxyphenyl)methyl)phenyl)-3-(trifluoromethyl)-1H-pyrazole-5-carboxamide] gave a Ki of 0.1 to 50 nM.
With `NCc1cccc(-n2nc(C(F)(F)F)cc2C(=O)Nc2cccc(C(NCC3CC3)c3ccccc3)c2)c1` (stereo not shown) [41e, 1-(3-(Aminomethyl)phenyl)-N-(3-(((cyclopropylmethyl)amino)(phenyl)methyl)phenyl)-3-(trifluoromethyl)-1H-pyrazole-5-carboxamide], the Ki lay within 0.1 to 50 nM.
The molecule `CC(C)c1ccc(C(NCC2CC2)c2cccc(NC(=O)c3cc(C(F)(F)F)nn3-c3cccc(CN)c3)c2)cc1` (stereo not shown) [120e, 1-(3-(aminomethyl)phenyl)-N-(3-(((cyclopropylmethyl)amino)(4-isopropylphenyl)methyl)phenyl)-3-(trifluoromethyl)-1H-pyrazole-5-carboxamide] displayed a Ki of 0.1 to 50 nM.
The value for `NCc1cccc(-n2nc(C(F)(F)F)cc2C(=O)Nc2cccc(C(NCC3CC3)c3cccc(OCc4ccccc4)c3)c2)c1` (stereo not shown) [107f, 1-(3-(Aminomethyl)phenyl)-N-(3-((3-(benzyloxy)phenyl)(cyclopropylmethylamino)methyl)phenyl)-3-(trifluoromethyl)-1H-pyrazole-5-carboxamide] was 0.1 to 50 nM; that for `Nc1nccc2ccc(-n3nc(C(F)(F)F)cc3C(=O)Nc3cc(C(NCC4CC4)c4ccccc4)ccc3F)cc12` (single isomer, unassigned; (-)) [235g, (−)-1-(1-aminoisoquinolin-7-yl)-N-(5-((cyclopropylmethylamino)(phenyl)methyl)-2-fluorophenyl)-3-(trifluoromethyl)-1H-pyrazole-5-carboxamide] was 0.1 to 50 nM.
`N#Cc1cccc(C(NCC2CC2)c2ccc(F)c(NC(=O)c3cc(C(F)(F)F)nn3-c3ccc4ccnc(N)c4c3)c2)c1` (single isomer, unassigned; (+)) [257b, (+)-1-(1-aminoisoquinolin-7-yl)-N-(5-((3-cyanophenyl)(cyclopropylmethylamino)methyl)-2-fluorophenyl)-3-(trifluoromethyl)-1H-pyrazole-5-carboxamide] returned a Ki of 0.1 to 50 nM.
